{"source": "paper PMC7297817", "about": "“Pharmacological Characterization of a Betaine/GABA Transporter 1 (BGT1) Inhibitor Displaying an Unusual Biphasic Inhibition Profile and Anti-seizure Effects” (Neurochemical Research, 2020)", "origin": "cited, not measured here", "conditions_in_all_cases": "cited from earlier work", "key": {"mGAT3": {"biological_target": "T1, mGAT3 (Mus musculus, UniProt P31650)", "T1 construct": "expressed in transfected cells", "T1 sequence (P31650 1-627)": "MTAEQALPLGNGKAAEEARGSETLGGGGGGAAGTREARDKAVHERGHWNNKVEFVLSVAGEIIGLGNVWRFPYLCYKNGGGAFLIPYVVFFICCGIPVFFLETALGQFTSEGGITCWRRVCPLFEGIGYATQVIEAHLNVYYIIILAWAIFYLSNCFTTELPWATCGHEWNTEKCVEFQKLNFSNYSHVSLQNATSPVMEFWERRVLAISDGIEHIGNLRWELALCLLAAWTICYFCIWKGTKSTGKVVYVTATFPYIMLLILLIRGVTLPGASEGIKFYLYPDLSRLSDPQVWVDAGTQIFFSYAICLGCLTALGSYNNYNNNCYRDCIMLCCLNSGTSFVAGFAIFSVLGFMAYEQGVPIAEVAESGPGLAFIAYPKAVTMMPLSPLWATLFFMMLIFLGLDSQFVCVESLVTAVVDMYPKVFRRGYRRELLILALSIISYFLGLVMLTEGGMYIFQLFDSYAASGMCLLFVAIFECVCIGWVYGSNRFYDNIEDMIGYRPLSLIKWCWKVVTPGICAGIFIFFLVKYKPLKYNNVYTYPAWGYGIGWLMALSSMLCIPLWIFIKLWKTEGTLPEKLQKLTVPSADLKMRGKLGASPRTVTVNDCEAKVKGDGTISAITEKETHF", "parameters": "method as in PMID 25882526"}, "mBGT1": {"biological_target": "T2, mBGT1 (Mus musculus, UniProt P31651)", "T2 sequence (P31651 1-614)": "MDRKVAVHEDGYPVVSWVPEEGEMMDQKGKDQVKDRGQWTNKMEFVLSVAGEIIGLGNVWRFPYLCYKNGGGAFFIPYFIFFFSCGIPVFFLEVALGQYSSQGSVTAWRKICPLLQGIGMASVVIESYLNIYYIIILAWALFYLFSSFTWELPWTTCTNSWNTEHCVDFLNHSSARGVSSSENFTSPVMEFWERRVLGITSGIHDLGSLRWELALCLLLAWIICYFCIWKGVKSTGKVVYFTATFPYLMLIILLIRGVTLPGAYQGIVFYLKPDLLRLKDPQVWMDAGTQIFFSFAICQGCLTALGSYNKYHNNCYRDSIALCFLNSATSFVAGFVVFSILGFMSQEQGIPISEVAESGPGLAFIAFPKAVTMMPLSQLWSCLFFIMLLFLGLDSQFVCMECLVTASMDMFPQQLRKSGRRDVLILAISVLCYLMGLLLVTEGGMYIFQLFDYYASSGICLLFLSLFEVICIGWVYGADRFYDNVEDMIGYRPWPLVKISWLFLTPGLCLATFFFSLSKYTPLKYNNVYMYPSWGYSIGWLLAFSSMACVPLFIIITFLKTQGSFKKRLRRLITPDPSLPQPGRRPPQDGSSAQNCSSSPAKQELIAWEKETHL"}, "mGAT2": {"biological_target": "T3, mGAT2 (Mus musculus, UniProt P31649)", "T3 construct": "expressed in transfected cells", "T3 sequence (P31649 1-602)": "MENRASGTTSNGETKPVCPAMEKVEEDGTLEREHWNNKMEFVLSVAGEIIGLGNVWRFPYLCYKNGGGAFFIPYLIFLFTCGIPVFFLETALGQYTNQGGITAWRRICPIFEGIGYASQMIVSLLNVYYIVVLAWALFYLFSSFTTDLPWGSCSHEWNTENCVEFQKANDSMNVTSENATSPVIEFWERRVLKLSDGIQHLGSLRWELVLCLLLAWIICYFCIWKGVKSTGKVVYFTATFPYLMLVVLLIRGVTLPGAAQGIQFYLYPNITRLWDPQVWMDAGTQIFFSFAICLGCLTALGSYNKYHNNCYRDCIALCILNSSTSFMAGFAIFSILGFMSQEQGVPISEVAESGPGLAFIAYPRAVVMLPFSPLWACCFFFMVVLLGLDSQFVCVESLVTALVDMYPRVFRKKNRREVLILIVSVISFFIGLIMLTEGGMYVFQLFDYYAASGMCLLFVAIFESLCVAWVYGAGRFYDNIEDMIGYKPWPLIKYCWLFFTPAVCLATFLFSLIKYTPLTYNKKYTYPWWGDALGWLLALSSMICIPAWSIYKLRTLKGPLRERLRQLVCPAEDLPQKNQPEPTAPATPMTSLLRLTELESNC", "parameters": "method as in PMID 25882526"}, "mGAT1": {"biological_target": "T4, mGAT1 (Mus musculus, UniProt P31648)", "T4 construct": "expressed in transfected cells", "parameters": "method as in PMID 25882526"}}}
{"smiles": "Cc1ccsc1C(=CCCN(C)[C@H]1CCCC[C@H]1C(=O)O)c1sccc1C", "note": "[SBV2-114, (1R,2S)-2-((4,4-bis(3-methylthiophen-2-yl)but-3-en-yl)(methyl)amino)cyclohexanecarboxylic acid]", "values": [{"measurement": "reduced inhibitory potency at mGAT3 relative to mBGT1", "setting": "mGAT3", "value": "~13", "unit": "times"}, {"measurement": "selectivity for BGT1 over the other GAT subtypes", "setting": "mBGT1", "value": "> 13", "unit": "fold"}, {"measurement": "reduced inhibitory potency at mGAT2 relative to mBGT1", "setting": "mGAT2", "value": "~43", "unit": "times"}, {"measurement": "reduced inhibitory potency at mGAT1 relative to mBGT1", "setting": "mGAT1", "value": "about 26 times"}]}
